Results from publication PMC6633864, “Intestinal Absorption Profile of Three Polygala Oligosaccharide Esters in Polygalae Radix and the Effects of Other Components in Polygalae Radix on Their Absorption” (Evidence-based Complementary and Alternative Medicine : eCAM, 2019).

Experiments:
[1] = Intestinal absorption in vitro by the everted rat gut sac model; type: in vitro ADME; settings: for K a / P (%) percentage of absorption / P app: medium concentration (SA5 0.050, SA6 0.086, DISS 0.198 mg/ml)

With `COC(=O)c1ccccc1-c1c2ccc(=N)cc-2oc2cc(N)ccc12` [Rho123, Rhodamine 123, reference compound] the “increase of Rho123 absorption by combination with TS versus Rho123 alone” value (P-glycoprotein (P-gp); TS 1.58 mg/ml, at 180 min, P < 0.01) was “about 6.35 fold”.
In the case of `COc1cc(/C=C/C(=O)OC[C@H]2O[C@H](O[C@]3(CO)O[C@H](CO)[C@@H](O)[C@@H]3OC(=O)/C=C/c3cc(OC)c(O)c(OC)c3)[C@H](O)[C@@H](O)[C@@H]2O)cc(OC)c1O` [DISS, 3,6′-disinapoyl sucrose], the “cumulative amount per intestinal area, coincubated with TS versus monomers alone” value ([1]; TS 1.58 mg/ml, SA5 0.050, SA6 0.086, DISS 0.198 mg/ml, at 180 min, P < 0.01) is reported as 2.18 times, the “change of absorption in gut sacs after treatment with PT” value ([1]; coincubated with PT 0.012 mg/ml, SA5 0.050, SA6 0.086, DISS 0.198 mg/ml, 180 min) is reported as “no significant increase or decrease” and the K a ([1]; in PRE, 180 min, n = 5) is reported as 0.075 ± 0.0013 ^∗∗ μg·cm^−2·min^−1. For the same molecule, the “P (%) percentage of absorption” value ([1]; in PRE, 180 min, n = 5) was 2.71 ± 0.12%, the P app ([1]; in PRE, 180 min, n = 5) was 0.63 ± 0.011 ×10^−5cm/s and the K a ([1]; monomer, n = 5) was 0.032 ± 0.0015∗∗ μg·cm^−2·min^−1. For the same molecule, the “P (%) percentage of absorption” value ([1]; monomer, n = 5) was 1.15 ± 0.04%, the P app ([1]; monomer, n = 5) was 0.27 ± 0.013 ×10^−5cm/min and the “increase of cumulative absorption amount per area by combination with sodium caprate (SC)” value ([1]; sodium caprate 1%, SA5 0.050, SA6 0.086, DISS 0.198 mg/ml, at 180 min, P < 0.01) was roughly 2.00 fold. For the same molecule, the “absorption rate (Ka) with sodium caprate” value ([1]; sodium caprate 1%, SA6 0.086, DISS 0.198 mg/ml, n = 5) was 0.069 ± 0.0031 μg·cm^2·min, the P-gp substrate status (P-glycoprotein (P-gp); concluded from verapamil coincubation) was “not a substrate for P-gp” and the “influence of verapamil on transport” value (P-glycoprotein (P-gp); verapamil 0.1 mmol/L, DISS 0.198 mg/ml) was “no significant influence”.
